Measurements taken from patent US5489524A, “Chimeric protein that has a human Rho motif and deoxyribonuclease activity” (The United States of America as represented by the …, priority 1992, dated 1996).

Test system: Mammalian Endo-Exonuclease
Test: ss- and ds-DNase activities of the purified endo-exonuclease with divalent metal ions, NaCl, ATP or GTP (release of acid-soluble radioactivity from 32P-labeled pBR322 DNA)
Assay type: biochemical, Monkey
Details: for Activity % ds-DNase / Activity % ss-DNase: 37° C.
Method: The assay mixture contained 100 mM Tris-HCl pH 8.0, 10 mM MgCl2, and 17 μg of ^32 P-labelled linearized plasmid DNA. One unit of activity is defined as the amount of deoxyribonuclease which renders 1 μg of DNA acid-soluble in 30 min at 37° C. The plasmid was labeled using a random oligo-priming kit (Pharmacia Fine Chemical).
The ratios are calculated with respect to the activity of 10 mM Mg^2+ (100%).
The nuclease activities of putative recombination nucleases of E. coli are known to be affected by ATP. Moreover S. cerevisiae endo-exonuclease is believed to contain a region homologous to GTP-binding sites. The effects of ATP and GTP on the purified mammalian endo-exonuclease were therefore chosen to study.

[1] = 0.1 mM nucleotide added, 10 mM Mg^2+
[2] = 0.5 mM nucleotide added, 10 mM Mg^2+
[3] = 1.0 mM nucleotide added, 10 mM Mg^2+
[4] = metal ion 0.5 mM, activity with 10 mM Mg^2+ = 100%
[5] = metal ion 5.0 mM, activity with 10 mM Mg^2+ = 100%

SMILES	Activity % ds-DNase [1]	Activity % ss-DNase [1]	Activity % ds-DNase [2]	Activity % ss-DNase [2]	Activity % ds-DNase [3]	Activity % ss-DNase [3]	effect on ss-DNase and ds-DNase activities (0.1-1.0 mM)	ability to replace Mg^2+ as cofactor	Ratio of Activities for ss/ds-DNase (metal ion 0.5 mM)	Activity % ds-DNase [4]	Activity % ss-DNase [4]	Ratio of Activities for ss/ds-DNase (metal ion 5.0 mM)	Activity % ds-DNase [5]	Activity % ss-DNase [5]
Nc1ncnc2c1ncn2[C@@H]1O[C@H](COP(=O)(O)OP(=O)(O)OP(=O)(O)O)[C@@H](O)[C@H]1O [ATP]	70%	88%	77%	87%	60%	77%	slightly inhibited							
[Ca+2] [Ca^2+]								partially substitute for Mg^2+	0.8	80%	67%	0.8	57%	40%
